Values quoted from earlier work in article PMC7406630, “A new ^68Ga-labeled somatostatin analog containing two iodo-amino acids for dual somatostatin receptor subtype 2 and 5 targeting” (EJNMMI Research, 2020).

Chains of the proteins cited; added tags and fusions are not shown. Lines headed by an entry give the natural chain unless they say otherwise; changes in a name come on top.
UniProt P30874: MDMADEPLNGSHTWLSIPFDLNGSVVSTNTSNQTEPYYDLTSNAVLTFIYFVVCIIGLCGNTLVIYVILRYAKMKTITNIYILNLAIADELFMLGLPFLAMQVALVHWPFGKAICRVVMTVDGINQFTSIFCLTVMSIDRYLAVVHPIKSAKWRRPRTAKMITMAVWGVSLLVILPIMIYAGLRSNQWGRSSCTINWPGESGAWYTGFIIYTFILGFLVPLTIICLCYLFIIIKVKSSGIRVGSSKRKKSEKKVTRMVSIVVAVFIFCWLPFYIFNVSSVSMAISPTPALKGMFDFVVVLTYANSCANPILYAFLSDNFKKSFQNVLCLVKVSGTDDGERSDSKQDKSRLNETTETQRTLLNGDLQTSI

Molecular target: T1, human SST2 (Homo sapiens, UniProt P30874)
T1 construct: expressed in transfected cells; host or cells: HEK293 (HEK-SST2)
Parameters: method as in PMID 29523357
Settings: cAMP, HEK-SST2 cells; read-out: SST2 EC50, nM (95% CI); cited from earlier work

Substance	EC50
Octreotide	0.21 nM
Somatostatin-14	0.23 nM
